Where “and” joins values, the source holds several entries; their conditions need not be identical. Equal values may be shown once. The entries are a selection whose mix differs from that of the whole data set. Inconclusive results are not listed. Calls of active or inactive are those of the source. Unless noted, calls come from the whole dose curve; as a rule, active = well fitted curve in the direction sought with a large enough effect; inconclusive = small, poorly fitted or top-dose-only effect, or another doubt; inactive = no such curve, though single readings can be large; an effect the other way counts as inactive or inconclusive.
Columns and labels:
[1] = Cell Viability - LYMP2-014 (AID 983); conditions: LYMP2-014 lymphoblastoid cells, viability qHTS; at 92.2 µM (top of the series);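 note: cells exposed to compound for 24 h at 37 °C; plate controls were DMSO only for no effect and 92 µM tetraoctylammonium bromide for full effect; nearly all actives have a fitted effect of over 50% in size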
Procedure, shortened: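 Decrease in intracellular ATP after 24 hr treatment at 37 C, measured by luciferase luminescence, indicated cytotoxicity. Concentration-response data were fitted with the standard Hill equation to give AC50.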

Protein sequences, listed by entry. Tags and fused reporters are not part of them.
UniProt Q03181, whole entry: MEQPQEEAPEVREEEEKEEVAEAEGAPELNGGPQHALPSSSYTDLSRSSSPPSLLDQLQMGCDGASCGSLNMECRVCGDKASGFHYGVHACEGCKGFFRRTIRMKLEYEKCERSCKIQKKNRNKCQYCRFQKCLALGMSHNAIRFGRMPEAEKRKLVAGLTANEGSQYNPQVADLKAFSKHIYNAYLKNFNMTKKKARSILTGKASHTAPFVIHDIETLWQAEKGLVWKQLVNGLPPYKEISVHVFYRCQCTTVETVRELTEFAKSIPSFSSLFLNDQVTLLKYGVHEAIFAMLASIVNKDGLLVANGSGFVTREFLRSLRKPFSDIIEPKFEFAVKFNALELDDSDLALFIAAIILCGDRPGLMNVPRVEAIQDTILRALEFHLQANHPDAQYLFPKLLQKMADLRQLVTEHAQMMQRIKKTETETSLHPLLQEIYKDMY
UniProt O15648, whole entry: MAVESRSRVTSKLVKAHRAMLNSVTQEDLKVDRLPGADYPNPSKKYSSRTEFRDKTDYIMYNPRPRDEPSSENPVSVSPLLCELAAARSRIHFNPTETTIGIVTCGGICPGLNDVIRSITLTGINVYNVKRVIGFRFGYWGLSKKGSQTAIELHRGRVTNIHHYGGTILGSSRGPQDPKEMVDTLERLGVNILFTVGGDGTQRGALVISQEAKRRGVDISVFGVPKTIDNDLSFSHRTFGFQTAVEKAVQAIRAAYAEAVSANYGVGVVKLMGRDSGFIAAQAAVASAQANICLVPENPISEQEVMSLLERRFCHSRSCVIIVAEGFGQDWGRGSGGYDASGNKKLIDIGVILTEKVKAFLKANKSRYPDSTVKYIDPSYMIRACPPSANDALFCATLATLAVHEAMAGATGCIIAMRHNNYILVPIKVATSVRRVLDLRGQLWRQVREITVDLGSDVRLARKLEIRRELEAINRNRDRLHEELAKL
UniProt O94782, whole entry, looked up: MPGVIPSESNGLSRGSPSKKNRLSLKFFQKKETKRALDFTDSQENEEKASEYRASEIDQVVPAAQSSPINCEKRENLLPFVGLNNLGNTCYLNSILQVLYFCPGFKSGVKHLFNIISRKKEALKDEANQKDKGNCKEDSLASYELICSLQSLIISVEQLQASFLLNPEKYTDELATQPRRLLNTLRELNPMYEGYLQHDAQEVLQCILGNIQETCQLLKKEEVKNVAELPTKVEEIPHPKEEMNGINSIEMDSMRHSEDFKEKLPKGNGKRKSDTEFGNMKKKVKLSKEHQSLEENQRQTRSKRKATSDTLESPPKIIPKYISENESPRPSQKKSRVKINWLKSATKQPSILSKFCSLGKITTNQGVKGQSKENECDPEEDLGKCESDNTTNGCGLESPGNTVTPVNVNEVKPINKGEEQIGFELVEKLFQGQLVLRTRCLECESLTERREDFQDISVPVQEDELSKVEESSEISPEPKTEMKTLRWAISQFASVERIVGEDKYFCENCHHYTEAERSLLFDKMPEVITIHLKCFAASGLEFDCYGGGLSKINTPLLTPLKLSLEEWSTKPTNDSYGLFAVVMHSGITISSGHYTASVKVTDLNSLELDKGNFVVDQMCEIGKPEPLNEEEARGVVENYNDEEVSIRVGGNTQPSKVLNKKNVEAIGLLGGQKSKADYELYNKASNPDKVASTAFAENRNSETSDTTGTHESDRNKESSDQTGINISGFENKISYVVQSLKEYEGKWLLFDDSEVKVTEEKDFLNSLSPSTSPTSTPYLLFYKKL

[2] = Cell Viability - LYMP2-016 (AID 984); conditions: LYMP2-016 lymphoblastoid cell viability, qHTS; at 92.2 µM (top of the series);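 note: cells exposed to compound for 24 hours at 37 °C; % is set by controls: 0 for no effect and ±100 for the full control effect; nearly all actives have a fitted effect of over 55% in size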
Procedure, shortened: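 Acute toxicity in a Coriell human lymphoblastoid line is scored as loss of intracellular ATP over 24 h of treatment in complete medium. CellTiter-Glo signal is fitted across concentrations with the Hill equation to give AC50.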

[3] = Cell Viability - LYMP2-018 (AID 985); conditions: LYMP2-018 lymphoblastoid cells, viability (qHTS); at 92.2 µM (top of the series);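 note: compound exposure lasted 24 hr at 37 °C; plate controls were DMSO only for no effect and tetraoctylammonium bromide at 92 µM for full effect; nearly all actives have a fitted effect of over 50% in size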
Procedure, shortened: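 Acute cytotoxicity is scored as a concentration-dependent drop in intracellular ATP after 24 hr exposure of the lymphoblastoid line in complete culture medium, measured by luciferase luminescence. Potency is expressed as AC50 from Hill modelling.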

[4] = Cell Viability - LYMP2-020 (AID 986); conditions: LYMP2-020 lymphoma cell viability, qHTS; at 92.2 µM (top of the series);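 note: cells exposed to compound for 24 h at 37 °C; plate controls were DMSO only for no effect and tetraoctylammonium bromide at 92 µM for full effect; nearly all actives have a fitted effect of over 55% in size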
Procedure, shortened: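 Acute cytotoxicity in a human lymphoblastoid line is scored as a concentration-dependent fall in cellular ATP after 24 hr at 37 C in complete medium. The positive control is tetraoctylammonium bromide, and potency is given as Hill-fit AC50.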

[5] = Cell Viability - LYMP2-022 (AID 987); conditions: LYMP2-022 lymphoblastoid cell viability; at 92.2 µM (top of the series);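 note: cells exposed to compound for 24 hr; 0% = DMSO alone and full effect = tetraoctylammonium bromide at 92 µM; nearly all actives have a fitted effect of over 55% in size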
Procedure, shortened: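 Acute toxicity in a human lymphoblastoid line is scored as decreased intracellular ATP after 24 hr compound treatment at 37 C. ATP is measured by CellTiter-Glo luminescence; curves are fitted with the Hill equation to give AC50.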

[6] = Cell Viability - LYMP2-024 (AID 988); conditions: LYMP2-024 lymphoblastoid cell viability; at 92.2 µM (top of the series);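 note: cells exposed to compound for 24 hr at 37 °C; plate controls were DMSO only for no effect and 92 µM tetraoctylammonium bromide for full effect; nearly all actives have a fitted effect of over 60% in size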
Procedure, shortened: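 Acute toxicity is measured as concentration-dependent loss of intracellular ATP in a human lymphoblastoid line treated 24 hours at 37 C. Luciferase luminescence quantifies ATP; AC50 values come from standard Hill-equation modelling.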

[7] = Cell Viability - LYMP2-026 (AID 989); conditions: LYMP2-026 lymphoblastoid cell viability, qHTS; at 92.2 µM (top of the series);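 note: cells exposed to compound for 24 h at 37 °C; % is set by controls: 0 for no effect and ±100 for the full control effect; nearly all actives have a fitted effect of over 50% in size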
Procedure, shortened: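 Concentration-dependent loss of intracellular ATP in human lymphoblastoid cells after 24 hr at 37 C, quantified by luciferase luminescence. AC50 derived from standard Hill equation.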

[8] = Cell Viability - LYMP1-002 - Assay at 24 hr (AID 993); conditions: LYMP1-002 lymphoblastoid cells viability; at 92.2 µM (top of the series); note: % is set by controls: 0 for no effect and ±100 for the full control effect
Procedure, shortened: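 qHTS, LYMP1-002 lymphoblastoid, 24 h cpd, 37 C, CellTiter-Glo ATP luminescence; AC50 via Hill eq.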

[9] = Cell Viability - LYMP1-002 - Assay at 40 hr (AID 994); conditions: LYMP1-002 lymphoblastoid cell viability; at 92.2 µM (top of the series);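 note: 0% = DMSO only and full inhibition = 92 µM tetraoctylammonium bromide; nearly all actives have a fitted effect of over 60% in size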
Procedure, shortened: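 Viability in the human lymphoblastoid line was measured as intracellular ATP via CellTiter-Glo after 40 hr compound exposure. Tetraoctylammonium bromide served as positive control.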

[10] = qHTS Assay for Identification of Small Molecule Inducers of Hypoxia Response (AID 2120; active = well fitted curve in the direction sought with a large enough effect in the signal ratio, with a control signal flat, not every such curve was filed as active; the % refers to the signal ratio; note: 0% is about no effect); conditions: hypoxia response reporter cells, beta-lactamase ratio readout; at 104 µM (top of the series)
Procedure, shortened: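 Induction of beta-lactamase reporter activity was measured in CellSensor HRE-bla ME-180 cells after 17 h compound treatment at 37 degrees C, using CCF4 substrate and the 460nm/530nm emission ratio to derive AC50 values.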

[11] = biological target: Glucocorticoid receptor (Homo sapiens) (UniProt P04150); assay: qHTS assay for small molecule agonists of glucocorticoid receptor signaling (AID 588532; active = well fitted curve in the direction sought with a large enough effect in the signal ratio, with a control signal flat; the % refers to the signal ratio;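 note: 100% = dexamethasone at 0.1 µM and 0% = DMSO only wells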); conditions: HeLa MMTV-bla, beta-lactamase ratio, agonist, 18 h; active compounds read high
[12] = biological target: Glucocorticoid receptor (Homo sapiens) (UniProt P04150); assay: qHTS assay for small molecule antagonists of glucocorticoid receptor signaling (AID 588533; active = well fitted inhibition curve with a large enough effect in the signal ratio, with a control signal flat, not every such curve was filed as active; the % refers to the signal ratio; note: % is set by controls: 0 for no effect and ±100 for the full control effect); conditions: HeLa MMTV-bla, GRE beta-lactamase ratio, antagonist mode, 18 h; at 76.8 µM (top of the series)
[13] = biological target: Peroxisome proliferator-activated receptor delta (Homo sapiens) (UniProt Q03181); assay: qHTS assay for small molecule agonists of peroxisome proliferator-activated receptor delta signaling (AID 588534; calls by dose curve;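 note: 0% = DMSO basal wells and 100% = positive control agonist at 10 µM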); conditions: HEK293T PPARdelta-UAS-bla, beta-lactamase ratio, 18 h; at 76.7 µM (top of the series)
[14] = biological target: Peroxisome proliferator-activated receptor delta (Homo sapiens) (UniProt Q03181); assay: qHTS assay for small molecule antagonists of peroxisome proliferator-activated receptor delta signaling (AID 588535; active = well fitted inhibition curve with a large enough effect in the signal ratio, with a control signal flat, not every such curve was filed as active; the % refers to the signal ratio); conditions: HEK293T PPARd-UAS-bla, beta-lactamase FRET ratio, 18 h; at 76.7 µM (top of the series)
[15] = biological target: Peroxisome proliferator-activated receptor gamma (Homo sapiens) (UniProt P37231); assay: qHTS assay for small molecule agonists of peroxisome proliferator-activated receptor gamma signaling (AID 588536; active = well fitted curve in the direction sought with a large enough effect in the signal ratio, with a control signal flat, not every such curve was filed as active; the % refers to the signal ratio;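 note: 0% = DMSO basal wells and 100% = rosiglitazone at 2 µM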); conditions: HEK293 PPARg-UAS-bla, beta-lactamase ratio, 16 h, percent of rosiglitazone response, DMSO as zero; at 76.7 µM (top of the series)
Procedure, shortened: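 GeneBLAzer PPAR-gamma-UAS-bla HEK293 cells in 1% charcoal/dextran-treated FBS medium were treated 16 h at 37 C with compounds. Beta-lactamase activity was read by CCF4 ratio (460/530 nm). Response was normalized to 2 uM rosiglitazone (100%) and DMSO, then Hill-fitted for EC50 and efficacy.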

[16] = biological target: Peroxisome proliferator-activated receptor gamma (Homo sapiens) (UniProt P37231); assay: qHTS assay for small molecule antagonists of peroxisome proliferator-activated receptor gamma signaling (AID 588537; active = well fitted inhibition curve with a large enough effect in the signal ratio, with a control signal flat, not every such curve was filed as active; the % refers to the signal ratio;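 note: reporter cells co-stimulated with 50 nM rosiglitazone agonist during compound treatment; % of control where 0% means no effect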); conditions: HEK293 PPARg-UAS-bla, beta-lactamase ratio, antagonist mode; at 76.8 µM (top of the series)
Procedure, shortened: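 Step one: plate 3000 HEK293 UAS-bla cells per well in medium with 1% stripped serum and hold 6-6.5 h at 37 C. Step two: add compound and 50 nM agonist for 16 h. Step three: CCF4 loading, fluorescence read.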

[17] = biological target: Vitamin D3 receptor (Homo sapiens) (UniProt P11473); assay: qHTS assay for small molecule antagonists of vitamin D receptor signaling (AID 588541; calls by dose curve;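 note: receptor activated by calcitriol during compound treatment; % is set by controls: 0 for no effect and ±100 for the full control effect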); conditions: HEK293T VDR-UAS-bla, beta-lactamase ratio, antagonist mode; at 76.7 µM (top of the series)
Procedure, shortened: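 VDR-UAS-bla HEK293T cells in 2% charcoal-stripped FBS were stimulated with 1-alpha,25-dihydroxyvitamin D3 (3 nM final) plus compound for 16 h at 37 C. The beta-lactamase CCF4 readout was normalized to 50 nM agonist and DMSO, and Hill fits gave IC50.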

[18] = qHTS Assay for Lipid Storage Modulators (AID 1519; calls by dose curve; note: % is set by controls: 0 for no effect and ±100 for the full control effect); conditions: Drosophila S3 cells, BODIPY lipid droplet/cell ratio, laser cytometry, cells loaded with oleic acid; at 57.5 µM (top of the series)
[19] = biological target: ATP-dependent 6-phosphofructokinase (Trypanosoma brucei brucei) (UniProt O15648); assay: qHTS Assay to Find Inhibitors of T. brucei phosphofructokinase: hit validation (AID 492961); note: % is set by controls: 0 for no effect and ±100 for the full control effect; conditions: T. brucei PFK, ADP-Glo luminescence; at 51.4 µM (top of the series)
Procedure, shortened: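 Luminescence from ADP-Glo reports ADP generated as T. brucei PFK (1.25 nM) phosphorylates 0.5 mM fructose-6-phosphate using 0.1 mM ATP. Reactions ran 45 min at room temperature, pH 8.0.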

[20] = biological target: Ubiquitin carboxyl-terminal hydrolase 1 (Homo sapiens) (UniProt O94782); assay: Inhibitors of USP1/UAF1: Pilot qHTS (AID 504865); conditions: purified USP1/UAF1, Ub-rhodamine cleavage fluorescence; at 114 µM (top of the series);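 note: rhodamine fluorescence freed from ubiquitin-rhodamine substrate followed over time; top concentration of the series differs between compounds; % is set by controls: 0 for no effect and ±100 for the full control effect; nearly all actives have a fitted effect of over 35% in size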

O=[N+]([O-])C(Cl)(Cl)Cl
inactive: activity change, negative = cytotoxicity [1] -0.5% | activity change, negative = cytotoxicity [2] -6.63% | activity change, negative = cytotoxicity [3] -2.8% | activity change, negative = viability loss [4] 2.78% | viability change, negative = cytotoxic [5] -1.41% | activity change, negative = cytotoxicity [6] -16.9% | activity change, negative = cytotoxic [7] 5.97% | activity change, negative = cytotoxicity [8] -8.21% | viability change, negative = cytotoxic [9] -5.26% | activation [10] -0.604% | activation [11] 20.3% and -1.72% | activity change, negative = inhibition [12] 13.8% and -12.8% | activation [13] -0.919% and 1.11% | activity change, negative = inhibition [14] -4.32% and 17.1% | activation [15] 1.45% and -3.78% | activity, negative = inhibition [16] 5.6% | activity change, negative = inhibition [17] 8.91% and 0.889%

CN(CCCl)CCCl
inactive: activity change, negative = inhibition [18] -7.02% | activation [10] 0.604% | activity change, negative = inhibition [19] -16.8% | activity change, negative = inhibition [20] -6.03% and -4.27% | activation [13] -7.64% | activity, negative = inhibition [16] -17.1%

CCC(=O)N(c1ccccc1)C1CCN(CCc2ccccc2)CC1
inactive: activity change, negative = inhibition [19] -7.51%

— PubChem BioAssay (NCATS)
